How the values were obtained:
pH of gastric juice = experiment: Pharmacodynamic profile (pH of gastric juice) in beagles after histamine; conditions: beagle, oral 0.2 mg/kg
[1] = Pharmacokinetic profile in beagles, single oral dose; type: in vivo, beagle dogs; conditions: beagle, oral single dose 0.2 mg/kg, mean n=3
[2] = target: proton pump (H+/K+-ATPase) (Sus scrofa (Pig), UniProt P19156); experiment: Inhibitory activity on proton pump (H+/K+-ATPase) activity; conditions: read-out: Proton pump inhibitory activity (IC50, nM), class symbol; porcine gastric mucosal microsomes, 5 mM KCl, pH 6.4

Chains of the proteins cited; added tags and fusions are not shown. Residues count along the entry.
UniProt P19156, 2-1034 limits assumed: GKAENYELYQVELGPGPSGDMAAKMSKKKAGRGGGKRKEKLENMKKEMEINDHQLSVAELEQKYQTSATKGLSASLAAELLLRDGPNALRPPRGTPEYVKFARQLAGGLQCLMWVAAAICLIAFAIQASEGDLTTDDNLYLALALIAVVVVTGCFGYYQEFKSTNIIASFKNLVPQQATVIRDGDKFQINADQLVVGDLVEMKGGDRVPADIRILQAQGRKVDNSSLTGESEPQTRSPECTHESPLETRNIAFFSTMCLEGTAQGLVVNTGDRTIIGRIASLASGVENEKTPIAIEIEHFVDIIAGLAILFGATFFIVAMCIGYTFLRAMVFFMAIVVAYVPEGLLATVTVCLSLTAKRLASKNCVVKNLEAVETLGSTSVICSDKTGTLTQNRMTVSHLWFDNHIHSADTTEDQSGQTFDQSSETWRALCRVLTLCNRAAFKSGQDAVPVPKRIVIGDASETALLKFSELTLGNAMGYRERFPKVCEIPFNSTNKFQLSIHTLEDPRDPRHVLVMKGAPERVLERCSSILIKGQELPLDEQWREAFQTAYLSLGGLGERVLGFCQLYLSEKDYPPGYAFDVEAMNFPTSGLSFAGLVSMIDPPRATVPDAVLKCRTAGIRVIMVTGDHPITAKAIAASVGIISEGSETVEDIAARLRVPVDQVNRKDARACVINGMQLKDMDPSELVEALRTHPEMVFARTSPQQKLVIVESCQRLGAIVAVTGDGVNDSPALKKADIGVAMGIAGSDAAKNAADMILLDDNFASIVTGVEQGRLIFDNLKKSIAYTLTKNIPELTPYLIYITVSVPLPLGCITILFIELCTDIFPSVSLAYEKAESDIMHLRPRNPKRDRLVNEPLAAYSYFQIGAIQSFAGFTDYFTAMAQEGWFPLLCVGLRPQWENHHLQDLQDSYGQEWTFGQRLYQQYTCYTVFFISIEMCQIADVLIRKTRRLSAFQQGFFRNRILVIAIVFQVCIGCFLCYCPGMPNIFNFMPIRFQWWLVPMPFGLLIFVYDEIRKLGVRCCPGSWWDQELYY
UniProt P18434, whole entry partner: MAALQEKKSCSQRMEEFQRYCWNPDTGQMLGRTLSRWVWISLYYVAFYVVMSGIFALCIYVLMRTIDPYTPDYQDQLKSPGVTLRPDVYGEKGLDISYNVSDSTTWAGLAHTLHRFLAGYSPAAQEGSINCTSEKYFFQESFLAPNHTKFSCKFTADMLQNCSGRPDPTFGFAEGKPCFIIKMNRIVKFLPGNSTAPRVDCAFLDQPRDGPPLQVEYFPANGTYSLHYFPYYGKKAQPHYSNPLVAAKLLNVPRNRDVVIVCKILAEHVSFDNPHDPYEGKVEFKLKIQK

CNCc1cc(-c2ccccc2F)n(S(=O)(=O)c2cccnc2)c1
Average pH of gastric juice (pH of gastric juice; 0 h): 6.8 | Average pH of gastric juice (pH of gastric juice; 2.5 h): 4.8 | Average pH of gastric juice (pH of gastric juice; 4.5 h): 6.3 | Average pH of gastric juice (pH of gastric juice; 7.5 h): 4.8 | Average pH of gastric juice (pH of gastric juice; 25.5 h): 2.3 | Average pH of gastric juice (pH of gastric juice; 49.5 h): 3.0 | AUClast [1]: 85.5 ng·h/mL | Cmax [1]: 36.4 ng/mL | Tmax [1]: 1.0 h | IC50 [2]: < 100 nM
